Source: patent publication US10668048B2, “Compounds for inhibiting bacterial growth via phosphatidylglycerol binding” (Wichita State University, priority 2016, dated 2020)

Assay: Carboxy-fluorescein efflux from PE/PG liposomes
Assay type: biochemical
Conditions: 2.5 μM, positive control, within a few minutes of addition
Procedure: Liptin 3e causes membrane leakage when it binds to PG in a membrane, as evidenced by the efflux of fluorescent carboxy-fluorescein from model lipid vesicles of 80% PE/20% PG (the approximate lipid content models E. coli's plasma membrane), shown in FIG. 19A. […] Not shown is the effect of the bee AMP melittin, which forms pores in membranes at 2.5 μM concentrations. Upon addition of melittin within a few minutes of addition the efflux is 100%.
Liptins 3f-h also cause membrane leakage when they bind to PG in a membrane, as evidenced by the efflux of fluorescent carboxy-fluorescein from model lipid vesicles of 80% PE/20% PG (the lipid content models E. coli's plasma membrane), shown in FIG. 19B. The circle bottom line data set is the control without liptin. […] Y-axis: % Efflux; X-axis: Time in minutes.
This greater efflux activity may well translate to lower MICs of these two compounds relative to liptin 3e, and may well change the liptin activity from bacteriostatic to bactericidal. […]

## CC[C@H](C)[C@H](NC(=O)CN)C(=O)NCC(=O)N[C@@H](C)C(=O)N[C@H](C(=O)N[C@@H](CC(C)C)C(=O)N[C@@H](CCCCN)C(=O)N[C@H](C(=O)N[C@@H](CC(C)C)C(=O)N[C@H](C(=O)N[C@H](C(=O)NCC(=O)N[C@@H](CC(C)C)C(=O)N1CCC[C@H]1C(=O)N[C@@H](C)C(=O)N[C@@H](CC(C)C)C(=O)N[C@H](C(=O)N[C@@H](CO)C(=O)N[C@@H](Cc1c[nH]c2ccccc12)C(=O)N[C@H](C(=O)N[C@@H](CCCCN)C(=O)N[C@@H](CCCNC(=N)N)C(=O)N[C@@H](CCCCN)C(=O)N[C@@H](CCCNC(=N)N)C(=O)N[C@@H](CCC(N)=O)C(=O)N[C@@H](CCC(N)=O)C(N)=O)[C@@H](C)CC)[C@@H](C)CC)[C@@H](C)O)[C@@H](C)O)C(C)C)C(C)C [melittin, reference compound]
  efflux (loss of dye): 100%
